The term Kd denotes the equilibrium constant for the complex coming apart. High values mean lower affinity, low ones higher affinity.

Protein sequences, listed by entry. Tags and fused reporters are not part of them. Lines headed by an entry give the natural chain unless they say otherwise; changes in a name come on top.
UniProt Q9Y572: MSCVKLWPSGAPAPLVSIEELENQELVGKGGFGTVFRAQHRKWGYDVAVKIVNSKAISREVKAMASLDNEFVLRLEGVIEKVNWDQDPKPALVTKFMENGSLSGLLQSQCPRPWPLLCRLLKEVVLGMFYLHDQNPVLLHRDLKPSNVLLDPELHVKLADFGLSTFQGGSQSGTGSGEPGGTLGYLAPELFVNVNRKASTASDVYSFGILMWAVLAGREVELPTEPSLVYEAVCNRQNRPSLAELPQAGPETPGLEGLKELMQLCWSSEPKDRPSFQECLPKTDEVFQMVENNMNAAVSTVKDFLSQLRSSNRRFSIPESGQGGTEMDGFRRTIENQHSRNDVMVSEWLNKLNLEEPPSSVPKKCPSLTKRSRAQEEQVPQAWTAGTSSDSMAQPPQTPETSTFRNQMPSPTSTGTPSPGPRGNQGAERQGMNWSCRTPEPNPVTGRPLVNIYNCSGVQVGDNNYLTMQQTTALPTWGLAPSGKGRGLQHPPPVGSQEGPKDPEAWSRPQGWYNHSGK

Here are results for 30 compounds from patent US12583836B2 (Anaxis Pharma Pty Ltd, priority 2020, dated 2026).

This assay concerns the target T1, RIP3 (Homo sapiens, UniProt Q9Y572).
T1 construct: purchased DiscoverX (KINOMEscan service); host or cells: E. coli BL21-derived (T7 phage) or HEK293
The assay can be described thus: KINOMEscan binding assay, RIP3. The following applies: equilibrium dissociation constant, class symbols.
`NC(=O)c1c(-c2ccc(NS(=O)(=O)CC(F)(F)F)c(Oc3ccc(F)cc3)c2)n[nH]c1Nc1cccc(C(F)(F)F)n1` [Compound 148, 3-(3-(4-fluorophenoxy)-4-((2,2,2-trifluoroethyl)sulfonamido)phenyl)-5-((6-(trifluoromethyl)pyridine-2-yl)amino)-1H-pyrazole-4-carboxamide] gave a Kd above 30 µM.

`CCS(=O)(=O)Nc1ccc(-c2n[nH]c(Nc3cnc(C)cn3)c2C(N)=O)cc1OCc1ccc(F)c(Cl)c1` [Compound 150, 3-(3-((3-chloro-4-fluorobenzyl)oxy)-4-(ethylsulfonamido)phenyl)-5-((5-methylpyrazin-2-yl)amino)-1H-pyrazole-4-carboxamide] gave a Kd of 1 to 30 µM.

As to `NC(=O)c1c(-c2ccc(NS(=O)(=O)CC(F)(F)F)cc2)n[nH]c1Nc1ccc(C(F)(F)F)cn1` [Compound 153, 3-(4-((2,2,2-trifluoroethyl)sulfonamido)phenyl)-5-((5-(trifluoromethyl)pyridine-2-yl)amino)-1H-pyrazole-4-carboxamide], the dissociation constant Kd is above 30 µM.

`NC(=O)c1c(-c2ccc(NS(=O)(=O)CC(F)(F)F)c(OC3(c4ccccc4)CC3)c2)n[nH]c1Nc1cnccn1` [Compound 161, 3-(3-(1-phenylcyclopropoxy)-4-((2,2,2-trifluoroethyl)sulfonamido)phenyl)-5-(pyrazin-2-ylamino)-1H-pyrazole-4-carboxamide] displayed a dissociation constant Kd above 30 µM.

For `Cc1cnc(Nc2[nH]nc(-c3ccc(NS(=O)(=O)CC(F)(F)F)c(OCc4ccc(F)cc4)c3)c2C(N)=O)cn1` [Compound 163, 3-(3-((4-fluorobenzyl)oxy)-4-((2,2,2-trifluoroethyl)sulfonamido)phenyl)-5-((5-methylpyrazin-2-yl)amino)-1H-pyrazole-4-carboxamide], the equilibrium dissociation constant (Kd) was above 30 µM.

Regarding `CCS(=O)(=O)Nc1ccc(-c2n[nH]c(Nc3cnccn3)c2C(N)=O)cc1OCc1ccc(Cl)c(F)c1` [Compound 166, 3-(3-((4-chloro-3-fluorobenzyl)oxy)-4-(ethylsulfonamido)phenyl)-5-(pyrazin-2-ylamino)-1H-pyrazole-4-carboxamide], the Kd was above 30 µM.

In turn, `NC(=O)c1c(-c2ccc(NS(=O)(=O)CC(F)(F)F)c(Oc3cccc(F)c3)c2)n[nH]c1Nc1cnccn1` [Compound 167, 3-(3-(3-fluorophenoxy)-4-((2,2,2-trifluoroethyl)sulfonamido)phenyl)-5-(pyrazin-2-ylamino)-1H-pyrazole-4-carboxamide] returned a Kd above 30 µM.

For `NC(=O)c1c(-c2ccc(NS(=O)(=O)CC(F)(F)F)c(OCc3ccc(F)cc3)c2)n[nH]c1Nc1cnccn1` [Compound 170, 3-(3-((4-fluorobenzyl)oxy)-4-((2,2,2-trifluoroethyl)sulfonamido)phenyl)-5-(pyrazin-2-ylamino)-1H-pyrazole-4-carboxamide], the dissociation constant Kd was above 30 µM.

On to `CCS(=O)(=O)Nc1ccc(-c2n[nH]c(Nc3cccc(OC(F)(F)F)n3)c2C(N)=O)cc1OCc1ccc(F)cc1` [Compound 172, 3-(4-(ethylsulfonamido)-3-((4-fluorobenzyl)oxy)phenyl)-5-((6-(trifluoromethoxy)pyridine-2-yl)amino)-1H-pyrazole-4-carboxamide], for which the equilibrium dissociation constant (Kd) was above 30 µM.

On to `CCS(=O)(=O)Nc1ccc(-c2n[nH]c(Nc3cccc(OCCOC)n3)c2C(N)=O)cc1OCc1ccc(F)cc1` [Compound 174, 3-(4-(ethylsulfonamido)-3-((4-fluorobenzyl)oxy)phenyl)-5-((6-(2-methoxyethoxy)pyridine-2-yl)amino)-1H-pyrazole-4-carboxamide], for which the dissociation constant Kd was 1 to 30 µM.

Turning to `NC(=O)c1c(-c2ccc(NS(=O)(=O)CC(F)(F)F)c(OCc3ccc(F)cc3)c2)n[nH]c1Nc1ccc(C(F)(F)F)nc1` [Compound 176, 3-(3-((4-fluorobenzyl)oxy)-4-((2,2,2-trifluoroethyl)sulfonamido)phenyl)-5-((6-(trifluoromethyl)pyridine-3-yl)amino)-1H-pyrazole-4-carboxamide], the Kd is above 30 µM.

Regarding `NC(=O)c1c(-c2ccc(NS(=O)(=O)CC(F)F)c(OCc3ccc(F)cc3)c2)n[nH]c1Nc1cccc(C(F)(F)F)n1` [Compound 178, 3-(4-((2,2-difluoroethyl)sulfonamido)-3-((4-fluorobenzyl)oxy)phenyl)-5-((6-(trifluoromethyl)pyridine-2-yl)amino)-1H-pyrazole-4-carboxamide], the dissociation constant (Kd) was above 30 µM.

As for `Cc1cnc(Nc2[nH]nc(-c3ccc(NS(=O)(=O)CCC(F)(F)F)c(OCc4ccc(F)cc4)c3)c2C(N)=O)cn1` [Compound 183, 3-(3-((4-fluorobenzyl)oxy)-4-((3,3,3-trifluoropropyl)sulfonamido)phenyl)-5-((5-methylpyrazin-2-yl)amino)-1H-pyrazole-4-carboxamide], the Kd is above 30 µM.

`CCS(=O)(=O)Nc1ccc(-c2n[nH]c(Nc3cnccn3)c2C(N)=O)cc1Oc1ccc(Cl)cc1` [Compound 185, 3-(3-(4-chlorophenoxy)-4-(ethylsulfonamido)phenyl)-5-(pyrazin-2-ylamino)-1H-pyrazole-4-carboxamide] registered a Kd above 30 µM.

For the compound `CCS(=O)(=O)Nc1ccc(-c2n[nH]c(Nc3cnccn3)c2C(N)=O)cc1OCC1CCCN(C)C1` (stereo not drawn) [Compound 187, 3-(4-(ethylsulfonamido)-3-((1-methylpiperidin-3-yl)methoxy)phenyl)-5-(pyrazin-2-ylamino)-1H-pyrazole-4-carboxamide], the Kd was above 30 µM.

Compound `CCS(=O)(=O)Nc1ccc(-c2n[nH]c(Nc3cccnc3C(F)(F)F)c2C(N)=O)cc1OCc1ccc(F)cc1` [Compound 192, 3-(4-(ethylsulfonamido)-3-((4-fluorobenzyl)oxy)phenyl)-5-((2-(trifluoromethyl)pyridine-3-yl)amino)-1H-pyrazole-4-carboxamide] displayed a dissociation constant (Kd) above 30 µM.

With `CCS(=O)(=O)Nc1ccc(-c2n[nH]c(Nc3ccnc(C(F)(F)F)n3)c2C(N)=O)cc1OCc1ccc(F)cc1` [Compound 195, 3-(4-(ethylsulfonamido)-3-((4-fluorobenzyl)oxy)phenyl)-5-((2-(trifluoromethyl)pyrimidin-4-yl)amino)-1H-pyrazole-4-carboxamide], the equilibrium dissociation constant (Kd) is above 30 µM.

Regarding `CCS(=O)(=O)Nc1ccc(-c2n[nH]c(Nc3cnccn3)c2C(N)=O)c(OCc2ccc(Cl)cc2)c1` [Compound 198, 3-(2-((4-chlorobenzyl)oxy)-4-(ethylsulfonamido)phenyl)-5-(pyrazin-2-ylamino)-1H-pyrazole-4-carboxamide], the dissociation constant (Kd) was above 30 µM.

Compound `CCS(=O)(=O)Nc1ccc(-c2n[nH]c(Nc3cccc(C(F)(F)F)n3)c2C(N)=O)cc1OCC1CCCCC1` [Compound 200] returned a Kd above 30 µM.

`NC(=O)c1c(-c2ccc(NS(=O)(=O)C(F)F)c(OCc3ccc(F)cc3)c2)n[nH]c1Nc1cnccn1` [Compound 202, 3-(4-((difluoromethyl)sulfonamido)-3-((4-fluorobenzyl)oxy)phenyl)-5-(pyrazin-2-ylamino)-1H-pyrazole-4-carboxamide]: the Kd was above 30 µM.

`CCS(=O)(=O)Nc1ccc(-c2n[nH]c(Nc3cnccn3)c2C(N)=O)cc1Oc1cccc(F)c1` [Compound 204, 3-(4-(ethylsulfonamido)-3-(3-fluorophenoxy)phenyl)-5-(pyrazin-2-ylamino)-1H-pyrazole-4-carboxamide] came in with a dissociation constant (Kd) above 30 µM.

As to `CCS(=O)(=O)Nc1ccc(-c2n[nH]c(Nc3cnccn3)c2C(N)=O)cc1OCCc1ccccc1` [Compound 210, 3-(4-(ethylsulfonamido)-3-phenethoxyphenyl)-5-(pyrazin-2-ylamino)-1H-pyrazole-4-carboxamide], the Kd is above 30 µM.

`NC(=O)c1c(-c2ccc(NS(=O)(=O)C(F)F)c(OCc3ccc(F)cc3)c2)n[nH]c1Nc1cccc(C(F)(F)F)n1` [Compound 217]: the Kd is above 30 µM.

As to `CCS(=O)(=O)Nc1ccc(-c2n[nH]c(Nc3cnccn3)c2C(N)=O)cc1OCCc1cccc(F)c1` [Compound 219, 3-(4-(ethylsulfonamido)-3-(3-fluorophenethoxy)phenyl)-5-(pyrazin-2-ylamino)-1H-pyrazole-4-carboxamide], the Kd is above 30 µM.

`COCCOc1cc(Nc2[nH]nc(-c3ccc(NS(=O)(=O)N(C)C)cc3)c2C(N)=O)ccn1` [Compound 221, 3-(4-((N,N-dimethylsulfamoyl)amino)phenyl)-5-((2-(2-methoxyethoxy)pyridin-4-yl)amino)-1H-pyrazole-4-carboxamide]: the Kd was above 30 µM.

Consider `C[C@H](Oc1cc(-c2n[nH]c(Nc3cnccn3)c2C(N)=O)ccc1NS(=O)(=O)C(F)F)c1ccc(F)cc1` [Compound 223, 3-[4-(difluoromethanesulfonamido)-3-[(1S)-1-(4-fluorophenyl)ethoxy]phenyl]-5-[(pyrazin-2-yl)amino]-1H-pyrazole-4-carboxamide], for which the Kd was above 30 µM.

For the compound `NC(=O)c1c(-c2ccc(NS(=O)(=O)CC(F)(F)F)c(OCc3ccccn3)c2)n[nH]c1Nc1cnccn1` [Compound 227, 5-[(pyrazin-2-yl)amino]-3-{3-[(pyridin-2-yl)methoxy]-4-(2,2,2-trifluoroethanesulfonamido)phenyl}-1H-pyrazole-4-carboxamide], the dissociation constant (Kd) was above 30 µM.

In turn, `CCS(=O)(=O)Nc1ccc(-c2n[nH]c(Nc3cnccn3)c2C(N)=O)cc1O[C@@H](C)c1ccccn1` [Compound 230, 3-{4-ethanesulfonamido-3-[(1S)-1-(pyridin-2-yl)ethoxy]phenyl}-5-[(pyrazin-2-yl)amino]-1H-pyrazole-4-carboxamide] had a dissociation constant (Kd) above 30 µM.

Compound `NC(=O)c1c(-c2ccc(NS(=O)(=O)CC(F)(F)F)c(OCc3ccc(Cl)cc3)c2)n[nH]c1Nc1cnc(C(F)(F)F)cn1` [Compound 234, 3-{3-[(4-chlorophenyl)methoxy]-4-(2,2,2-trifluoroethanesulfonamido)phenyl}-5-{[5-(trifluoromethyl)pyrazin-2-yl]amino}-1H-pyrazole-4-carboxamide] returned an equilibrium dissociation constant (Kd) above 30 µM.

Turning to `NC(=O)c1c(-c2ccc(NS(=O)(=O)C(F)F)c(OC(c3ccc(F)cc3)C3CCC3)c2)n[nH]c1Nc1cnccn1` (stereo not drawn) [Compound 236, 3-{3-[cyclobutyl(4-fluorophenyl)methoxy]-4-(difluoromethanesulfonamido)phenyl}-5-[(pyrazin-2-yl)amino]-1H-pyrazole-4-carboxamide], the Kd is above 30 µM.
